Earlier results in EP0523085B1, “PEROXY ACID BLEACH PRECURSORS AND DETERGENT COMPOSITIONS CONTAINING THEM” (priority 1990, dated 1991).

Conditions: room temperature (20°C); cited from earlier work

## tetra acetyl ethylene diamine [TAED, reference compound]
  solubility in water: approximately 0.2%
